Test results taken from patent US12428456B2, “Peptide directed protein knockdown” (University of British Columbia, priority 2012, dated 2025).

Chains of the proteins cited; added tags and fusions are not shown.
UniProt P31016, whole entry: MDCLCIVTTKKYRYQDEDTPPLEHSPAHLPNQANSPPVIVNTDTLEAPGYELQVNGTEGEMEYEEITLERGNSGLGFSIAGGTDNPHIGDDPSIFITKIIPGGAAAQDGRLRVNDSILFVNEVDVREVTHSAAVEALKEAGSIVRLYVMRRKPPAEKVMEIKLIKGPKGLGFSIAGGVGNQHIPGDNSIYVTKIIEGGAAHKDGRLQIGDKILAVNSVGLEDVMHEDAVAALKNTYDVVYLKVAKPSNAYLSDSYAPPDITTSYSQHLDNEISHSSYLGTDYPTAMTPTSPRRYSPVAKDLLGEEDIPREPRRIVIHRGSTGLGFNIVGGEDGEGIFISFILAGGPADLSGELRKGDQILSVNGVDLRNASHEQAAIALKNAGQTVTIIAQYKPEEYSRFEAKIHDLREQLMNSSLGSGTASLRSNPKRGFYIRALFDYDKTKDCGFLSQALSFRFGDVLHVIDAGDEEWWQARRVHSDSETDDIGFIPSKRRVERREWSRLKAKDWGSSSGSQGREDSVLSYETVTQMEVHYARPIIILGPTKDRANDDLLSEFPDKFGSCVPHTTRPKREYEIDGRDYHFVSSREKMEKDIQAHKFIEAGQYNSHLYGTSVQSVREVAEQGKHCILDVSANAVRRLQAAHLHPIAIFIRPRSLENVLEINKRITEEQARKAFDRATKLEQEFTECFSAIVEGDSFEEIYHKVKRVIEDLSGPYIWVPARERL

Target: T1, PSD95 (Rattus norvegicus, UniProt P31016)
T1 construct: endogenous in cells; host or cells: primary rat neurons
Assay: Degradation of endogenous PSD95 in cultured neurons (immunoblot)
Assay type: cell-based
Conditions: for effect on endogenous PSD95 level: 25 μM bath applied
Description: Primary culture of cortical neurons. Dissociated cultures of rat cortical neurons were prepared from Sprague Dawley rat embryos collected from euthanized mothers 18 days after fertilization as previously described^35. Briefly, hippocampi and cerebral cortices were extracted from embryos and incubated for 30 min in 0.25% trypsin-EDTA. Digested tissues were dissociated by trituration and plated on poly-D-lysine-coated (Sigma, P7280) plates. Plating medium consisted of Neurobasal Media (Invitrogen, 21103-049) supplemented with B27 (Invitrogen, 17504044), glutamic acid (Sigma, G8415) and GlutaMax (Invitrogen, 35050-061). After 2 days, 2/3 of the media was replaced with fresh Neurobasal feeding media consisting of Neurobasal Media, B27 and GlutaMax. Cultures were maintained at 37° C. in a humidified 5% CO2 atmosphere. Mature neurons (14-18 days in vitro (DIV)) were used for experiments.
Immunoblotting. Immunoblotting assays were carried out as previously described^36. Briefly, proteins were extracted from neurons using a lysis buffer composed of 150 mM NaCl, 50 mM Tris, pH 7.4, 0.1% SDS, 1% NP-40, 0.5% sodium deoxycholate, 1 mM EDTA, 1 mM Na3VO4, and proteinase inhibitor mixture (Thermo Fisher, PI78442). Samples were separated on 10% SDS-PAGE gels, transferred to polyvinylidene difluoride (PVDF) membrane, and immunoblotted with respective antibodies. Blots were enhanced with chemiluminescence detection reagent kit (Fisher, 32106) and visualized with Bio-Rad imager and Quantity One software. Signal intensities from each band was quantified with Bio-Rad Image Lab software, and the bands were analyzed relative to their controls from the same membrane and experiment.

Question: What does the source list for “YGRKKRRQRRRKLSSIESDV [TAT-NR2B9c, reference compound]”?
Answer: effect on endogenous PSD95 level: but not its control TAT-NR2B9c; effect on endogenous PSD95 level (listed as Tat-NR2B9c): but not Tat-NR2B9c; effect of 3-methyladenine on PSD95 reduction (+3-MA): failed to affect
